Measured values from patent US11976068B2 (CHIMERIX, INC., priority 2015, dated 2024).

System: CYP isozymes (CYP 1A2, 2B6, 2C8, 2C9, 2C19, 2D6 and 3A4)
Assay: CYP inhibition in pooled human liver microsomes, all isozymes
Settings: pooled HLM

Cc1ccccc1CN1C(=O)C2=C(CCN(Cc3ccccc3)C2)N2CCN=C12 [ONC201, 7-benzyl-4-(2-methylbenzyl)-2,4,6,7,8,9-hexahydroimidazo [1,2-a]pyrido[3,4-e]pyrimidin-5(1H)-one]
time dependence of CYP inhibition: not significantly time-dependent
